# Publication PMC11181486, “Nonsymmetrically Substituted 1,1′-Biphenyl-Based Small Molecule Inhibitors of the PD-1/PD-L1 Interaction” (ACS Medicinal Chemistry Letters, 2024)
# Target: PD-1/PD-L1 (Homo sapiens, UniProt Q9NZQ7)
# Format: cell-based
# Parameters: host or cells: PD-L1+ aAPC/CHO-K1 cells; PD-1 effector Jurkat cells
# Conditions: PD-L1+ aAPC/CHO-K1 cells cocultured 6 h with PD-1 effector Jurkat cells; read-out: PD-1/PD-L1 blockade, NFAT reporter bioassay EC50
# Description: The PD-1/PD-L1 immune checkpoint bioassay (PD-1/PD-L1 Bioassay, Promega) was conducted according to the manufacturer’s protocol. PD-L1+ aAPC/CHO-K1 cells were seeded at a density of […] in 100 μL of medium [Ham’s F12, 10% fetal bovine serum (FBS)] in 96-well white flat-bottomed plates and incubated overnight at 37 °C in the presence of 5% CO2. The next day, the medium was removed, and serial dilutions of small molecule inhibitors were added at 40 μL per well in assay buffer (RPMI1640 + 1% FBS + 1% DMSO). […] The cells were cocultured for 6 h at 37 °C with 5% CO2 followed by a 5 min equilibration at room temperature. Bio-Glo Reagent (Promega) was prepared and added at 80 μL per well. After a 15 min incubation at room temperature, luminescence was measured using a Tecan Spark microplate reader. Data are presented as fold induction of luminescence relative to DMSO-treated cells. EC50 values were calculated using the log(inhibitor) vs response variable slope (four-parameter) analysis model with GraphPad Prism software.
row,SMILES,EC50
1,Cc1c(NC(=O)c2ccc(CN[C@@H]3CCC[C@H]3O)cn2)cccc1-c1cccc(NC(=O)c2ccc(CN(C)CCO)cn2)c1C [Compound 1],208 nM
2,COC(=O)[C@H](C)NCc1ccc(C(=O)Nc2cccc(-c3cccc(NC(=O)c4ccc(CN5CCCC5)cn4)c3C)c2C)nc1 [Compound 6],757 nM
3,Cc1c(NC(=O)c2ccc(CNCCCO)cn2)cccc1-c1cccc(NC(=O)c2ccc(CN(C)CCO)cn2)c1C [Compound 7],66.8 nM
4,Cc1c(NC(=O)c2ccc(CN(C)CCO)cn2)cccc1-c1cccc(NC(=O)c2ccc(CN(CCO)CCO)cn2)c1C [Compound 8],255 nM
5,Cc1c(NC(=O)c2ccc(CNCCCO)cn2)cccc1-c1cccc(NC(=O)c2ccc(CN[C@@H]3CCC[C@H]3O)cn2)c1C [Compound 12],136 nM
6,Cc1c(NC(=O)c2ccc(CNCCO)cn2)cccc1-c1cccc(NC(=O)c2ccc(CNCCNS(C)(=O)=O)cn2)c1C [Compound 16],257 nM
